Test system: Panc-1 human pancreatic ductal carcinoma cells
Assay: Panc1 cell assay (XTT cell viability with Etoposide)
Format: cell-based
Conditions: 4 h pre-treatment, then 300 nM Etoposide, 46 h
Excerpt: A selection of compounds was screened in a cellular assay system in two different cancer cell lines. Therefore, the cells were challenged with a generally non-cytotoxic concentration of Etoposid to induce DNA double strand breaks and the activation of the ATM pathway. The cells were further treated with different concentrations of the final compounds and viability of the cells was quantified using a standard XTT cell viability protocol. The principle of this assay lies in the fact that only alive and thus metabolically active cells are able to catalyze the reduction of XTT ((2,3-bis-(2-methoxy-4-nitro-5-sulfophenyl)-2H-tetrazolium-5-carboxanilide) by NADH from mitochondria, into formazan. The formazan product can be then detected using an absorbance-based microplate reader. The absorbance intensity measured in each well correlates to cell viability.
In brief, kras^G12D; mycOE; p53^−/− murine pancreatic cancer cells (KMP53) and Panc-1 human pancreatic ductal carcinoma cells were seeded in 96-well plates and left to attach overnight. […] For the determination of cell viability, absorbance at 450 nm was measured for each well. Absorbance values were then normalized to DMSO control and expressed as percentages of viability. Using software GraphPad Prism, the values were fitted in a nonlinear response curve and the IC50 values were calculated.

With `CN(C)CCCOc1ccc(-c2ccc3ncc4c(c3c2)n(C2CCOCC2)c(=O)n4C)cn1` [AZD0156, reference compound] the IC50 was 305 nM.

Reference: patent US20230348462A1, “IMIDAZO[4,5-C]QUINOLINE COMPOUNDS AND THEIR USE AS ATM KINASE INHIBITORS” (Deutsches Krebsforschungszentrum, priority 2020, published 2023)
